Test results: US20010001713A1, “Composition and method for measuring the foliar uptake of agrochemicals” (priority 1999, published 2001)

Test system: rice plants
Details: in vivo

Substance: lauryl alcohol ethoxylate [lauryl alcohol ethoxylate(S)]
- Recovery (%) of tricyclazole: 68.7%
